The record followed here is ChEMBL document CHEMBL1135721, “Pyridophens: binary pyridostigmine-aprophen prodrugs with differential inhibition of acetylcholinesterase, butyrylcholinesterase, and muscarinic receptors” (2002).

Assay [1] addresses Butyrylcholinesterase (Equus caballus) (UniProt Q9N1N9). Put plainly: Inhibitory activity against Butyrylcholinesterase (BChE) Carbamylation rate was reported.
Assay [2] shares this target. Put plainly: Inhibitory activity against Butyrylcholinesterase (BChE) and Bimolecular rate was reported.
The target of assay [3] is T1, Acetylcholinesterase (Bos taurus) (UniProt P23795).
T1 sequence (whole entry): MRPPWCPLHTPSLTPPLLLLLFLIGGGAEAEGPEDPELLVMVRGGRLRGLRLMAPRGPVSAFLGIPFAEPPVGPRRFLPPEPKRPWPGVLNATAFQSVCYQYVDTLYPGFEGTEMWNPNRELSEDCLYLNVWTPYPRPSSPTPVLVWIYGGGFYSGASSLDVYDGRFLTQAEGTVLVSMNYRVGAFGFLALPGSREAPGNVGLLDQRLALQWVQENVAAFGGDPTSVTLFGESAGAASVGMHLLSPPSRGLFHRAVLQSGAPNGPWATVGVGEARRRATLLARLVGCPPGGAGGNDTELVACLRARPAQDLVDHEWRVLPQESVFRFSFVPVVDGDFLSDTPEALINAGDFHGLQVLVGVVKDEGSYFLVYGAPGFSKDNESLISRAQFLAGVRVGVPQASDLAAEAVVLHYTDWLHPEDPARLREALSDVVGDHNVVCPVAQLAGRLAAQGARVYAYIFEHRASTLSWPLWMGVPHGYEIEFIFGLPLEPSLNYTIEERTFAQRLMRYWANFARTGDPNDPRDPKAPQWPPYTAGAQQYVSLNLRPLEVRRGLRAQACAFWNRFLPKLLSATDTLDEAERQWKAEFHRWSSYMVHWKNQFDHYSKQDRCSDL
Put plainly: Inhibitory activity against Acetylcholinesterase (AChE) and Carbamylation rate was reported.

The target of assay [4] is T1, Acetylcholinesterase (Bos taurus). Put plainly: Inhibitory activity against Acetylcholinesterase (AChE) and Bimolecular rate constant was reported.
For assay [5] the target is unchanged. Put plainly: Inhibitory activity against Acetylcholinesterase (AChE) inhibitor and Bimolecular rate constant was reported.

For the compound `CN(C)C(=O)Oc1ccc[n+](C)c1`, the k2c in assay [1] stood at 0.52 min⁻¹; in assay [3], 5.78 min⁻¹. Further, the figures for the k2' in assay [2] and in assay [4] were 0.076 M⁻¹ s⁻¹ and 0.0485 M⁻¹ s⁻¹, respectively.

As to `CN(C)C(=O)Oc1ccc[n+](C)c1COC(=O)C(C)(c1ccccc1)c1ccccc1`, the k2c worked out at 0.03 min⁻¹ in assay [1] and 1.28 min⁻¹ in assay [3]. For the same compound, the figures for the k2' in assay [2] and in assay [5] were 0.156 M⁻¹ s⁻¹ and 0.038 M⁻¹ s⁻¹, respectively.

Regarding `CN(C)C(=O)Oc1cccnc1CO`, the k2c in assay [1] amounted to 1.08 min⁻¹; in assay [3], 0.07 min⁻¹. The k2' in assay [2] was determined as 0.00131 M⁻¹ s⁻¹; in assay [4], 2.08e-05 M⁻¹ s⁻¹.

Turning to `CN(C)C(=O)Oc1cccnc1COC(=O)C(C)(c1ccccc1)c1ccccc1`, the k2c in assay [1] was determined as 2.91 min⁻¹; in assay [3], 1.08 min⁻¹. The k2' in assay [2] is 5.72e-07 M⁻¹ s⁻¹; in assay [4] it was 4.63e-06 M⁻¹ s⁻¹.

Regarding `CN(C)C(=O)OC1=CCCN(C)C1COC(=O)C(C)(c1ccccc1)c1ccccc1` (stereo not given), the results for the k2c in assay [1] and in assay [3] were 1.41 min⁻¹ and 0.39 min⁻¹, respectively. Also, the values for the k2' in assay [2] and in assay [4] were 4.25e-07 M⁻¹ s⁻¹ and 0.000141 M⁻¹ s⁻¹, respectively.
